Patent publication US20260144780A1, “COMPOSITION FOR ENHANCING ADRENOMEDULLIN GENE EXPRESSION” (HOUSE WELLNESS FOODS CORPORATION, priority 2020, published 2026)

Target: human TRPA1 (Homo sapiens, UniProt O75762)
Test: TRP channel agonist activity, intracellular Ca2+ imaging, hTRPA1 stably expressing cell line
Format: cell-based
Settings: AITC 30 μM
Text: DNA fragments containing nucleotide sequences encoding amino acid sequences of human TRPA1 (Accession No. NM_007332.3) (hereinafter referred to also as hTRPA1), human TRPV1 (Accession No. NM_080704.4) (hereinafter referred to also as hTRPV1) and human TRPM8 (Accession No. NM_024080.5) (hereinafter referred to also as hTRPM8) were inserted into pcDNA5/TO vectors (Invitrogen) to construct an hTRPA1 expression vector, an hTRPV1 expression vector and an hTRPM8 expression vector, respectively.
T-REx™_293 cells (Invitrogen) were cultured in Dulbecco's modified Eagle medium (DMEM, Nacalai Tesque Inc.) containing 10% fetal bovine serum (FBS, Cytiva) up to 60 to 70% confluent growth in the wells of a 6 well plate. T-REx™-293 cells were transfected with an hTRPA1 expression vector, an hTRPV1 expression vector or an hTRPM8 expression vector by use of Lipofectamine LTX (Invitrogen) in accordance with a manual.
To Dulbecco's modified Eagle medium (DMEM, Nacalai Tesque Inc.) containing 10% fetal bovine serum (FBS, Cytiva), hygromycin B and blasticidin S were added so as to have a concentration of […] and 5 μg/ml, respectively. In this manner, a drug selection medium was prepared. Twenty-four hours after completion of transfection, the medium of the above cells was exchanged with the drug selection medium, and thereafter, the cells were cultured for 7 days while exchanging the medium with a fresh medium every two days. Living cells were subcultured and regarded as hTRPA1 stably expressing cell line, hTRPV1 stably expressing cell line and hTRPM8 stably expressing cell line, respectively.
The day before assay, cells of the individual expressing cell lines were removed from the medium with a trypsin/EDTA solution and seeded in the wells of a 96-well black-well plate with a clear bottom so as to obtain a cell density of 5×10^4 cells to 6×10^4 cells/well. At this time, tetracycline was added to the medium so as to obtain a concentration of 1 μg/ml to induce expression of hTRPA1, hTRPV1 or hTRPM8. Culture was carried out in an incubator at 37° C. for 24 hours to 48 hours and then cells were washed with PBS. […] The cells to be subjected to assay were incubated at 31° C. and a test substance solution (100 μl) was added to the cells for assay by use of Flaxstation3 (Molecular Devices) and fluorescence intensity (excitation wavelength: 490 nm, fluorescence wavelength: 525 nm) was measured every 2 seconds up to 120 seconds. […]
TRP channel activation ability of a test substance was calculated as a relative value based on the activation ability of 10 μM ionomycin to each of TRP channels, in accordance with the following calculation formula. […]

## C=CCN=C=S
In the absence of A-967079, oxylipin compounds 200 μM and 500 μM, Evaluation 5, FIG. 21
  TRPA1 activation ability: showed TRPA1 activation ability
In the absence of A-967079, purified oxylipins 100 μM and 500 μM, Evaluation 2, FIG. 18
  TRPA1 activation ability: showed TRPA1 activation ability
In the presence of 1 μM A-967079 (TRPA1 antagonist), oxylipin compounds 200 μM and 500 μM, Evaluation 5, FIG. 21
  TRPA1 activation ability: did not show TRPA1 activation ability
In the presence of 1 μM A-967079 (TRPA1 antagonist), purified oxylipins 100 μM and 500 μM, Evaluation 2, FIG. 18
  TRPA1 activation ability: did not show TRPA1 activation ability
